Reference: patent US5292751A, “5,7-dihydroxy-2-methyl-8-(4-(3-hydroxy-1-(1-propyl))pip eridinyl)-4H-1-benzopyran-4-one, its preparation and its use” (priority 1991, dated 1994)

Experiments:
[1] = in vivo; conditions: po, rat
[2] = type: in vivo; conditions: rat, p.o.; LD50 over carrageenin ED50
Procedure: 1. Acute inflammation model:
Systemic anti-inflammatory action on carrageenin-induced paw oedema in rats.
Male Charles Foster rats (120-150 g) were fasted for 18 hours, with water ad libitum. The test compound suspended in Tween^R 80 and 0.5% C.M.C. was administered orally. The control group received Tween 80 and 0.5% C.M.C. 0.05 ml of 0.5% carrageenin suspension was injected subcutaneously into the plantar region of the left hind paw. Using a Maclab differential volume meter, the paw volume was determined before the carrageenin injection and 3 and 6 hours after the injection. The percentage decrease in paw volume was calculated by the following equation: [formula] The ED50 value was calculated from the dose/response curve. Six animals were used for each group.

In the case of `Cc1cc(=O)c2c(O)cc(O)c(C3CCN(C)CC3O)c2o1` (centres unmarked) [Compound B], the LD50 [1] is reported as 82.5 mg/kg and the “Therapeutic index (LD50 ED50)” value [2] is reported as 9.4.
